# Values of other authors, collected in patent US20040132819A1, “Appetite control method” (priority 2002, published 2004).
# Chains of the proteins cited; added tags and fusions are not shown.
# UniProt P47746, whole entry: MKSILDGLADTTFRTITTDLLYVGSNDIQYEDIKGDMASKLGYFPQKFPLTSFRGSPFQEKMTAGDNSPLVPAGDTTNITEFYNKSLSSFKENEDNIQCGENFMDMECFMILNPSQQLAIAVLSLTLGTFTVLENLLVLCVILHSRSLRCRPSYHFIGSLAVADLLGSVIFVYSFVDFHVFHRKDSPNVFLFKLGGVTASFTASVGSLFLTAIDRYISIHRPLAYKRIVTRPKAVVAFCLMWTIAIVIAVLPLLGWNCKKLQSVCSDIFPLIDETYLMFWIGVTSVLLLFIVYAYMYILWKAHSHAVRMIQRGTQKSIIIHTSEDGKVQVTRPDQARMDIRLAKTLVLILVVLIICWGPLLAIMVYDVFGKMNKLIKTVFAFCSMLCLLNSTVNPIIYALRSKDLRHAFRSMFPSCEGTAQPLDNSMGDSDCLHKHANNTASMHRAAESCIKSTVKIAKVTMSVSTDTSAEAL
# Assays:
# CB1 receptor [1] = details: intraperitoneal injection after fasting for 18 hours; cited from earlier work
# CB1 receptor [2] = molecular target: CB1 receptor (Mus musculus, UniProt P47746); details: intraperitoneal injection after fasting for 18 hours; cited from earlier work
# [3] = subcutaneous before 1.0 mg/kg 20:4n-6 NAE; cited from earlier work
compound,measurement,setting,value
"Cc1c(C(=O)NN2CCCCC2)nn(-c2ccc(Cl)cc2Cl)c1-c1ccc(Cl)cc1 [SR141716A, (N-piperidin-1-yl)-5(4-chlorophenyl)-1-(2,4-dichlorophenyl)-4-methyl-1-H-pyrazole-3-carboxamide]",food intake in CB1 receptor knockout mice,CB1 receptor [1],no changes in food intake
same,food intake in wild-type controls,CB1 receptor [2],decreased food intake
same,effect of pretreatment on 20:4n-6 NAE induced overeating,[3],blocked
